From patent publication US20060083748A1, “Calixarenes for use as excipient for an active substance” (priority 2002, published 2006)

Assays:
[1] = Membrane permeation, PAMPORE system (hydrophilic pores in the lipid layer); conditions: hydrophilic pores in the lipid layer (paracellular path); 125 or 250 μM, Tris-buffer pH 7.4, 16 hours
[2] = Membrane permeation, traditional artificial membrane without hydrophilic pores (Standard); conditions: artificial membrane without hydrophilic pores (transcellular path); 125 or 250 μM, Tris-buffer pH 7.4, 16 hours

## Tetra [dimethylamino-methyl]-calix[4]arenes
[1]
  Membrane permeation (%) PAMPORE: 94%
[2]
  Membrane permeation (%) Standard: <10%
